# In patent US9884839B2, “Inhibitors of 17Beta-hydroxysteroid dehydrogenases type 1 and type 2” (ElexoPharm GmbH, priority 2014, dated 2018):
# Where “and” joins values, the source holds several entries; their conditions need not be identical. Identical values can stand only once.
# Tests used:
# human 17β-HSD2 = target: T1, human 17β-HSD2 (Homo sapiens, UniProt P37059); assay: Inhibition of human 17β-HSD2 (conversion of [3H]-E2 to E1)
# T1 sequence (P37059 1-387): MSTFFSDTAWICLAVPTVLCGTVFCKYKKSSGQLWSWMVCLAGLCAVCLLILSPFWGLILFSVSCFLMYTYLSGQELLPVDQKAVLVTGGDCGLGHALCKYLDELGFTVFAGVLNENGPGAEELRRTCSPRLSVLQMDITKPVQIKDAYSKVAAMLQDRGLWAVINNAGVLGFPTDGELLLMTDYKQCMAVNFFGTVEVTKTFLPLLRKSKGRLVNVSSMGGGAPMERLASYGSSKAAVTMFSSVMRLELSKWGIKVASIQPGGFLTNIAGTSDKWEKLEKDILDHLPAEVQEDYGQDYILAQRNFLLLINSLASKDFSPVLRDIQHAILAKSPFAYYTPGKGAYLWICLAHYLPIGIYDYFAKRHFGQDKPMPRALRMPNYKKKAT
# mouse 17β-HSD2 = target: T2, mouse 17β-HSD2 (Mus musculus, UniProt P51658); assay: Inhibition of mouse 17β-HSD2 (liver microsomal fraction); conditions: IC50 m17β-HSD2, mouse liver microsomal fraction, E2 10 nM, NAD+
# T2 sequence (P51658 1-381): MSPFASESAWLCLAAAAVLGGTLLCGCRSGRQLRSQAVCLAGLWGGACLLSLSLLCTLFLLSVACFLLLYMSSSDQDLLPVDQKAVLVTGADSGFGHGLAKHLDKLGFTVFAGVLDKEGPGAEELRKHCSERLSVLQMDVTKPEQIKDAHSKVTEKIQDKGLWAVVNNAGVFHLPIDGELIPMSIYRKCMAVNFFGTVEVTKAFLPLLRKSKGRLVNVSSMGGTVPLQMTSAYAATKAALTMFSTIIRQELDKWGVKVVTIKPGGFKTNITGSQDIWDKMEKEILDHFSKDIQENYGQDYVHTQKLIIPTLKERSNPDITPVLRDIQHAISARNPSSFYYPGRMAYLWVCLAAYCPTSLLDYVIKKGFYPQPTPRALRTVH
# rat 17β-HSD2 = target: T3, rat 17β-HSD2 (Rattus norvegicus, UniProt Q62730); assay: Inhibition of rat 17β-HSD2 (liver microsomal fraction); format: biochemical; conditions: read-out: % Inhibition r17β-HSD2
# T3 construct: The pellet fractions containing the microsomal 17β-HSD2 were used for the determination of E1 formation; from tissue; host or cells: rat liver, microsomal fraction
# T3 sequence (Q62730 1-381): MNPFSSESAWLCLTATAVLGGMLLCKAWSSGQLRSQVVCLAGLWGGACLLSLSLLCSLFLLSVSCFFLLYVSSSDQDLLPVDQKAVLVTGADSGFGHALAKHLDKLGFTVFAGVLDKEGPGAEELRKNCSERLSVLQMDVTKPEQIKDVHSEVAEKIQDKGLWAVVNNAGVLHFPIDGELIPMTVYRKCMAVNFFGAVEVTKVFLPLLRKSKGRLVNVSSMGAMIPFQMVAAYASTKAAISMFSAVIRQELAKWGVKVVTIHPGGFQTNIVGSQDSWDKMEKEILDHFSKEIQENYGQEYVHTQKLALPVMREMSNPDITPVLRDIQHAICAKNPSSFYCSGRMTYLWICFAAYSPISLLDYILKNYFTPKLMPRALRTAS
smiles,measurement,setting,value
"COc1c(C)cc(-c2ccc(C(=O)c3c(F)ccc(O)c3F)s2)cc1Cl [Compound 26, [5-(3-Chloro-4-methoxy-5-methyl-phenyl)-thiophen-2-yl]-(2,6-difluoro-3-hydroxy-phenyl)-methanone]",IC50,human 17β-HSD2,7 nM
"Cc1cc(-c2ccc(C(=O)c3c(F)ccc(O)c3F)s2)cc(Cl)c1O [Compound 27, [5-(3-Chloro-4-hydroxy-5-methyl-phenyl)-thiophen-2-yl]-(2,6-difluoro-3-hydroxy-phenyl)-methanone]",IC50,human 17β-HSD2,7 nM
"O=C(c1cccc(O)c1)c1ccc(-c2ccc(F)cc2F)s1 [A, reference compound]",inhibition at 1 µM,human 17β-HSD2; read-out: % inhibition h17β-HSD2 @ 1 μM,35%
O=C(c1ccc(-c2cccc(NS(=O)(=O)c3ccc(Br)cc3OC(F)(F)F)c2)s1)c1cc(F)c(F)c(O)c1F,IC50,mouse 17β-HSD2,90 nM and 12.5 nM
"Cc1ccc(C(=O)c2cc(F)c(F)c(O)c2F)s1 [Compound 73, (5-Methylthiophen-2-yl)(2,4,5-trifluoro-3-hydroxyphenyl)methanone]",inhibition at 0.1 µM,human 17β-HSD2; read-out: % inhibition h17β-HSD2 @ 100 nM,56%
"O=C(c1ccc(-c2cccc(NS(=O)(=O)c3ccccc3C(F)(F)F)c2)s1)c1cc(F)c(F)c(O)c1F [Compound 38, N-{3-[5-(2,4,5-Trifluoro-3-hydroxybenzoyl)thiophen-2-yl]phenyl}-2-trifluoromethylbenzenesulfonamide]",IC50,mouse 17β-HSD2,36 nM
"Nc1cccc(-c2ccc(C(=O)c3c(F)ccc(O)c3F)s2)c1 [Compound 1, [5-(3-Aminophenyl)thiophen-2-yl](2,6-difluoro-3-hydroxyphenyl)methanone]",inhibition at […],rat 17β-HSD2,48%
